Results reported in patent US12630785B2, “Liquid fabric care compositions comprising capsules” (The Procter & Gamble Company, priority 2020, dated 2026).

Assay: Capsule perfume leakage in liquid fabric enhancer (LFE), headspace SPME GC/MS
Format: physicochemical
Settings: PRM of Perfume 3 out of Capsule Sample D; LFE Composition 1
Description: The testing of capsule leakage in liquid compositions (e.g., liquid fabric enhancer/“LFE” compositions and/or heavy-duty liquid/“HDL” detergents) is performed as follows. […] The 1 gram aliquot in the 7 ml vial is then mixed on a stirring plate for 24 h at 500 rpm, thereby ensuring that the capsules are broken by the grinding action of the stir bar against the bottom of the 7 ml vial. Optical microscopy can be used to verify that no more intact capsules remain. In case such capsules are found, the step is to repeated for an additional 24 h, or until all or almost all capsules are broken. Then, the formulation containing broken capsules is introduced into GC vials in a similar manner as for step (a). […] It is to be noted that the capsule sample and the total oil sample are not analyzed on the same day, as there is a need to prepare the total oil sample after the leakage sample has been removed from storage. It is to be noted that the capsule sample and the total oil sample are not analyzed on the same day, as there is a need to prepare the total oil sample after the capsule sample has been removed from storage. […] After equilibrating, the samples are analyzed by GC/MS. […] The perfume composition is analyzed by fast GC/MS in full scan mode. […] At the end of the storage period, samples of each product composition are analyzed for perfume leakage out of the capsule using headspace analysis. […]

Substance: Pinyl iso-butyrate alpha
- Leakage (as %) after 1 week at 35° C.: 7%
